Our source for the refractive index values is the NIST ThermoML archive (doi:10.1016/j.jct.2015.11.006).

The series can be described thus: refractive index (Na D-line) (dimensionless). The settings on record: 298.15 K; 101.33 kPa; Liquid; Standard Abbe refractometry.

Each structure is given as a SMILES string. ± gives the expanded uncertainty stated by the source.

Usually refractive index stands for the speed of light in vacuum divided by its phase velocity in the sample.

For the molecule `CCCCOCCCC` [dibutyl ether], the refractive index was 1.3963 ± 0.0005.
